The numbers were not newly measured in patent US7728132B2, “Compositions for stabilizing chlorinated water to sunlight decomposition, and methods of preparation thereof” (Enviro Tech Chemical Services, Inc., priority 2007, dated 2010), which cites them from elsewhere.

The conditions of this data set: chlorinated water exposed to strong sunlight; cited from earlier work.

For chlorine, the half-life result is “less than 45 minutes”.
